The results in this text go back to patent US11407781B2, “Equatorially modified polymer linked multimers of guanosine-3′, 5′-cyclic monophosphates” (GRAYBUG VISION, INC., priority 2016, dated 2022).

This data set can be described thus: Determination of lipophilicity by RP-18 HPLC retention (log k′g). Format: physicochemical. An excerpt: Lipophilicity information is thus often only obtained by fragment analysis and corresponding calculations.
An established HPLC method, which is based on retention data on RP-18 reversed phase silica during gradient elution, was used for the determination of lipohilicity.
Instead of log P the method yields the descriptor log k′g, ranking analytes according to their lipophilicity on a logarithmic scale as well. Since charged molecules such as cyclic nucleotides have only hardly any retention on reversed phases, ion pair chromatography with the lipophilic triethylammonium cation is used.

“8-(2-Aminophenylthio)-β-phenyl-1,N^2-ethenoguanosine-3′,5′-cyclic monophosphorothioate, Rp-isomer [Compound 36]”: the “log k′g” value was determined as 3.150.
